For the test, the species on record is Homo sapiens. Put plainly: Selectivity ratio of IC50 for HDAC1 (unknown origin) to IC50 for HDAC6 (unknown origin).

SMILES strings stand for the structures.

For `O=C(Cc1ccc(CN2CCN(C(=O)c3cc(Cc4n[nH]c(=O)c5ccccc45)ccc3F)CC2)cc1)NO`, the Ratio IC50 was determined as 7.

(Values after ChEMBL document CHEMBL4052667 (Bioorg Med Chem, 2017).)
